Earlier results in article PMC5962642, “Dynamic imaging of adaptive stress response pathway activation for prediction of drug induced liver injury” (Archives of Toxicology, 2018).

Settings: ref Chen et al. [2016], cited from earlier work

In the case of Neomycin, the “DILI con. (DILI-concern labeling)” value (FDA DILI labeling) is given as “No-DC” and the “Hepa. (hepatotoxicity class)” value (FDA labeling in eight classes of hepatotoxicity) is given as 1.
